## Binding of CDR-mutated scFvs to a peptide of the spike HR2 region

All variants were tested on one target, the spike HR2 peptide PDVDLGDISGINAS (SARS-CoV-2).

Parent scFv Ab-14: VH joined to VL by three GGGGS repeats. Changes lie in the heavy chain CDRs alone.
VH: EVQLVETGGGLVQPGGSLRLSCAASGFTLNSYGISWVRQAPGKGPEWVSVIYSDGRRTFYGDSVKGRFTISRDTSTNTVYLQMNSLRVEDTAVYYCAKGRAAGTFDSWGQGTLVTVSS
VL: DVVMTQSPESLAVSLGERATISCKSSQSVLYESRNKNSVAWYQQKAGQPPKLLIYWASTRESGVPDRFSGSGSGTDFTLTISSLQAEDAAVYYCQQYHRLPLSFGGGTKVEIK

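The parent was found by panning a naive human phage display library on the peptide. Variants in AAYL49 differ from the parent at up to three CDR positions; double and triple changes were sampled at random. The assay is AlphaSeq: two haploid yeast populations carry antibody and antigen on their surface. Mating (16 h, 30 °C) was followed by selection of diploids and sequencing of their barcodes. A regression on co-assayed BCL2-family reference pairs converts the normalised counts of each replicate to an apparent Kd. There are three technical replicates.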

Substitutions are numbered in sequence along the VH above, starting at 1 (not Kabat).
This list gathers variants with a substitution at F105 (VH, numbered from residue 1).
Scale: log10 of Kd in nM, estimated from mating counts; low values are strong binders.
A mean of the replicates is given; it leaves out those without a signal.
"not detected" means that the variant was in the library but no mating with the target was seen in any replicate; the authors take this as a sign of poor binding, and no number exists.
Nonspecific signal, from three strains lacking the peptide, appeared in 15% of pairings of library AAYL49, centred on 4.06 (5% of these signals below 2.83); values are not corrected for it.
Parent in this assay: reference entry 0.65, copy in this library 4.11 (one replicate of three).

changes	mean log10 Kd (nM)	seen in
R56Q F59M F105C	not detected	0 of 3
Y60N R100K F105E	2.82	3 of 3
D62Q R100A F105V	not detected	0 of 3
R56A F105I	3.42	2 of 3
A101L F105Q S107Y	1.53	3 of 3
L29W R56Q F105N	5.04	2 of 3
I34H D54H F105E	5.19	1 of 3
T28F G99P F105H	1.62	3 of 3
F27Q F105R	not detected	0 of 3
V50G F105Q D106Y	not detected	0 of 3
S53H G103F F105T	not detected	0 of 3
Y32D F59Y F105M	4.77	2 of 3
N30T F105R	4.93	1 of 3
D54V Y60D F105M	3.91	2 of 3
S63H G99W F105A	not detected	0 of 3
T28E F105E	not detected	0 of 3
G33K R57M F105D	4.21	1 of 3
F27K Y32M F105S	4.53	3 of 3
Y32L R57C F105V	not detected	0 of 3
G33A I34K F105S	6.04	1 of 3
Y52R A102T F105C	3.38	2 of 3
T58A R100Y F105I	not detected	0 of 3
K65H G99D F105G	3.32	3 of 3
S63R G99S F105D	3.86	2 of 3
L29N G55S F105P	4.85	2 of 3
G61T F105V D106C	4.21	2 of 3
L29H D62W F105C	not detected	0 of 3
V50K F105G D106F	4.59	1 of 3
K65G G103Y F105A	3.27	1 of 3
D54E T58R F105P	5.21	2 of 3
V50R F105Q	4.80	2 of 3
R57K F105S	1.86	3 of 3
F59D F105P	3.58	3 of 3
G26A A101H F105N	4.21	1 of 3
S63P K65W F105H	not detected	0 of 3
R57Q D62R F105P	not detected	0 of 3
G61N A102I F105V	4.34	3 of 3
T28N F105A	2.21	3 of 3
I34M F105E	not detected	0 of 3
I34H I51T F105K	3.61	1 of 3
T104H F105P D106V	not detected	0 of 3
I34K F105T D106V	not detected	0 of 3
S31R R56F F105A	3.56	1 of 3
Y60N F105Q	4.23	1 of 3
S31F F105L S107K	not detected	0 of 3
G61N T104G F105E	not detected	0 of 3
F59L V64F F105S	4.57	1 of 3
K65C R100N F105C	3.63	1 of 3
L29D F105N S107I	6.14	1 of 3
G33P A102F F105M	not detected	0 of 3

The opening 8 entries, copied out:

changes	mean log10 Kd (nM)	seen in
R56Q F59M F105C	not detected	0 of 3
Y60N R100K F105E	2.82	3 of 3
D62Q R100A F105V	not detected	0 of 3
R56A F105I	3.42	2 of 3
A101L F105Q S107Y	1.53	3 of 3
L29W R56Q F105N	5.04	2 of 3
I34H D54H F105E	5.19	1 of 3
T28F G99P F105H	1.62	3 of 3

Source: Engelhart et al. 2022 (doi:10.1038/s41597-022-01779-4), MIT Lincoln Laboratory and A-Alpha Bio; data file from the FLAb repository.